Data from patent publication US9504672B2, “Compositions and methods for treating or preventing pneumovirus infection and associated diseases” (MicroDose Therapeutx, Inc., priority 2012, dated 2016).

Conditions: open wide glass bottles, 40° C./75% RH, 4 weeks

Cc1nnnn1/N=C/c1ccc(O)c(C(c2ccc(O)cc2)c2cc(/C=N/n3nnnc3C)ccc2O)c1 [P-3 dihydrate, phenol, 2,2′-[(4-hydroxyphenyl)methylene]bis[4-[[(5-methyl-1H-tetrazol-1-yl)imino]methyl]]]
change of form / solid-state stability (DSC and PXRD): stable against solid-state changes and chemical degradation
